According to patent publication US7169905 (dated 2007):

Experiments:
IL-1 receptor [1] = molecular target: T1, IL-1 receptor (human, UniProt P14778); assay: competition
T1 chain: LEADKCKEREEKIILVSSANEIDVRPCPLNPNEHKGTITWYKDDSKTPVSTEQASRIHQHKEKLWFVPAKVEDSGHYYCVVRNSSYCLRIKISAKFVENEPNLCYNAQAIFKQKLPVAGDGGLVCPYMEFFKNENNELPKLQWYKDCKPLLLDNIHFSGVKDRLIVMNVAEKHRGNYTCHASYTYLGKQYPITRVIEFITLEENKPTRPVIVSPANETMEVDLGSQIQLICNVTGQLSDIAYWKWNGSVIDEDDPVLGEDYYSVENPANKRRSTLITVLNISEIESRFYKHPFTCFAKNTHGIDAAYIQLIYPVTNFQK

IL-1 receptor [2] = molecular target: T1, IL-1 receptor; assay: competition

B1: IL-1ra (protein)
chain: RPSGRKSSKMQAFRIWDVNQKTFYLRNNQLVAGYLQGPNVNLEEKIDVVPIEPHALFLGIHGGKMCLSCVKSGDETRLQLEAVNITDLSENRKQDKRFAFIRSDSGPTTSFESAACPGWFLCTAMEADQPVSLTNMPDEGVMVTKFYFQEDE
IL-1 receptor [1]
  EC50: 2.65 nM
IL-1 receptor [2]
  Ki: 1.41 nM
